SMILES strings stand for the structures.

The species named for this experiment is Homo sapiens. The experiment in a line: Selectivity for IKK-beta over IKKalpha.

On to `Cc1cnc2c(NCCN)nc3cc(-c4ccccc4)sc3n12`, for which the Ratio IC50 was greater than 10.

These data come from ChEMBL document CHEMBL1140018, “Synthesis and structure-activity relationship of imidazo(1,2-a)thieno(3,2-e)pyrazines as IKK-beta inhibitors” (Bioorg Med Chem Lett, 2007).
